# PubChem BioAssay AID743126 (The Scripps Research Institute Molecular Screening Center, 2013)
# Chains of the proteins cited; added tags and fusions are not shown. Lines headed by an entry give the natural chain unless they say otherwise; changes in a name come on top.
# UniProt Q9NZ20: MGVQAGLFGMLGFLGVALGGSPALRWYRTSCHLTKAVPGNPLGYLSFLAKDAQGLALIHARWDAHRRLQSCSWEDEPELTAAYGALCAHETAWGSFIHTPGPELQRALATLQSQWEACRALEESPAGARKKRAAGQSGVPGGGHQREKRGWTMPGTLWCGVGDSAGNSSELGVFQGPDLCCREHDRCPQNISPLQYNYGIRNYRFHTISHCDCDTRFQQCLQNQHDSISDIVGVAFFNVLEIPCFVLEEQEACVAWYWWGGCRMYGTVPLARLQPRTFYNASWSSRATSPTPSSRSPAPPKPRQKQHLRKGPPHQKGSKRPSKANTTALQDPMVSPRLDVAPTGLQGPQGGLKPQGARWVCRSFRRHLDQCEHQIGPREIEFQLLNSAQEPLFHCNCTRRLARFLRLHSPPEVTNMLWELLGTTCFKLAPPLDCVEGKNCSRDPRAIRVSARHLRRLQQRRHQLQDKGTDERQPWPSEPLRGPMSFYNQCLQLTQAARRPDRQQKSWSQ
# The entries are a selection whose mix differs from that of the whole data set. Calls of active or inactive are those of the source.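 The calls were made as follows: active = inhibition above mean plus 3 SD of compounds lying within the high and low control bounds (cut at about 19% in these data); inactive = the rest.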
# Target: Group 3 secretory phospholipase A2 (Homo sapiens) (UniProt Q9NZ20)
# Experiment: HGIII-sPLA2 enzyme inhibition – biochemical, QFRET, BODIPY PC-A2 liposome substrate, primary screen (AID 743126);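 also: 0% = median of test compound wells and 100% = no enzyme DMSO wells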
# Details: QFRET BODIPY PC-A2 liposome hydrolysis, fluorescence; at 12.2 µM; stronger effect = higher value
row,SMILES,inhibition
1,O=P1(N(CCCl)CCCl)OCCCS1 (stereo unspecified),inactive: -0.48%
2,O=C(Nc1cc([As](=O)(O)O)ccc1O)c1ccccc1,inactive: 4.68%
3,O=[N+]([O-])c1ncn(CCn2ncnc2[N+](=O)[O-])n1,inactive: 5.4%
4,CC(C)(C)C(=O)NC(Sc1ccncn1)C(Cl)(Cl)Cl (stereo unspecified),inactive: 3.07%
5,O=C(O)CNc1ccc([As](=O)(O)O)cc1,inactive: 4.34%
6,COC(=O)C1(C)COP(=O)(Nc2ccccc2)OC1 (stereo unspecified),inactive: 18.2%
7,O=[N+]([O-])c1cccc(NC2=NCC(CBr)S2)c1 (stereo unspecified),inactive: 6.73%
8,COc1ccc(C2=NCC(CBr)S2)cc1 (stereo unspecified),inactive: -3.84%
9,CCc1nc2c(n1)c1c(non1O)c1c2no[n+]1[O-],inactive: 6.12%
10,O=[N+]([O-])c1cc([N+](=O)[O-])c(CCNc2ccccc2)c([N+](=O)[O-])c1,inactive: 15.7%
11,Cc1ccc(NP(=O)(Oc2ccccc2)Oc2ccccc2)nc1,inactive: 5.43%
12,O=[N+]([O-])c1cccc2n[nH]nc12,inactive: 12.5%
13,CC(=O)N1C2C3N(C(C)=O)C1C1N(C(C)=O)C(C(N1C(C)=O)N3C(C)=O)N2C(C)=O,inactive: -1.68%
14,CCN(/C(=N/P(=O)(N1CCOCC1)N1CCOCC1)N1CCOCC1)c1ccc(OC)cc1,inactive: -2.67%
15,C[N+]1=C2C=CC=CC=C2SC12C([N+](=O)[O-])=CC([N+](=O)[O-])=C[C-]2[N+](=O)[O-] (stereo unspecified),inactive: -10.9%
16,Nc1ccc([As](=O)(O)c2ccc(N)cc2)cc1,inactive: 9.78%
17,CC1CCN(C(=O)Oc2c(Cl)cc(Cl)c3cccnc23)CC1,inactive: -10.8%
18,c1cc(-c2nn[nH]n2)ccc1-c1nn[nH]n1,inactive: 1.32%
19,CN(C)C(=O)OCCc1n(C)cc[n+]1C,inactive: -3.25%
20,CC(C)c1nc(Nc2ccccc2)n(P(=O)(N(C)C)N(C)C)n1,inactive: 1.83%
21,CC(C)=N/N=C(\N)N[N+](=O)[O-],inactive: 3.08%
22,Cc1ccc(N/C(=N/P(=O)(N2CCOCC2)N2CCOCC2)N2CCOCC2)cc1,inactive: -5.13%
23,CN(C(=O)Cc1ccc(Cl)c(Cl)c1)[C@H]1CCCC[C@H]1N1CCCC1,inactive: -3.13%
24,NC(=O)c1cc([N+](=O)[O-])cc([N+](=O)[O-])c1N,inactive: 0.17%
25,CN1CCCC(OC(=O)C(c2ccccc2)c2ccccc2)C1 (stereo unspecified),inactive: -7.94%
26,Clc1ccc(Cl)c(NC2=NCC(CBr)S2)c1 (stereo unspecified),inactive: -2.83%

row,SMILES,inhibition
1,Cc1ccc(OP(=O)(Nc2nccs2)Oc2ccc(C)cc2)cc1,inactive: 2.99%
2,COc1ccccc1OP(=O)(Nc1ccc(C)cn1)Oc1ccccc1OC,inactive: 11%
3,O=C(NC(Sc1ccncn1)C(Cl)(Cl)Cl)c1ccccc1 (stereo unspecified),active: 21.6%
4,Oc1ccccc1CNc1ccccn1,inactive: 3.48%
5,Nc1cc(N)c2nonc2c1[N+](=O)[O-],inactive: -0.74%
6,CC(C)CC(=O)NC(Sc1ccc(Cl)cc1)C(Cl)(Cl)Cl (stereo unspecified),inactive: 8.89%
7,O=P(Nc1nc2ccc(Cl)cc2s1)(c1ccccc1)c1ccccc1,inactive: -30.4%
8,CN(C)P(=O)(N(C)C)n1c(Nc2ccccc2)nnc1-c1ccccc1,inactive: -12.5%
9,CCCC1OP(N)(=O)OCC1CC (stereo unspecified),inactive: 9.54%
10,CC(=O)Nc1ccc([As](=O)(O)O)cc1,inactive: 13%
11,O=C(O)c1ccccc1[As](=O)(O)O,inactive: 1.72%
12,CCn1c(=O)n(C2CCN(CC3CCCCCCC3)C[C@H]2CO)c2ccccc21 (stereo partly specified),inactive: -6.32%
13,Cc1ccc(NP(=O)(Oc2ccccc2F)Oc2ccccc2F)nc1,inactive: 2.46%
14,CN(C(=O)Cc1ccc(Cl)c(Cl)c1)[C@H]1CCCC[C@@H]1N1CCCC1,inactive: 5.75%
15,Cc1cc(SC(NC(=O)c2ccc(F)cc2)C(Cl)(Cl)Cl)ncn1 (stereo unspecified),inactive: -4.76%
16,CCOP(=O)(Nc1ccccc1)OCC,inactive: -5.16%
17,Nc1cccc2ccc([As](=O)(O)O)cc12,inactive: 2.21%
18,CCN(N=Nc1nonc1N)c1nonc1N,inactive: -5.32%
19,CN(C(=O)Cc1ccccc1)C1CC[C@@]2(CCCO2)C[C@@H]1N1CCCC1 (stereo partly specified),inactive: -4.82%
20,Cc1ccc(NP(=O)(Oc2cccc(C)c2)Oc2cccc(C)c2)nc1,inactive: -3.79%
21,c1ccc(-c2nn[nH]n2)c(-c2nn[nH]n2)c1,inactive: -1.93%
22,CCNC(=S)/N=C(\N)N[N+](=O)[O-],inactive: 0.16%
23,O=C(NC1CCS(=O)(=O)C1)NP(=S)(Oc1ccccc1)Oc1ccccc1 (stereo unspecified),inactive: -8.8%
24,O=P1(N(CCCl)CCCl)OCCC2CCCCN21 (stereo unspecified),inactive: 5.24%
25,CCC(=O)N1C2C3N(C(=O)CC)C1C1N(C(=O)CC)C(C(N1C(=O)CC)N3C(=O)CC)N2C(=O)CC,inactive: 2.79%
